Experimental findings from ChEMBL document CHEMBL3352729, “Hydroxybenzothiophene Ketones Are Efficient Pre-mRNA Splicing Modulators Due to Dual Inhibition of Dyrk1A and Clk1/4” (ACS Med Chem Lett, 2014) are described below.

For the assay, the target named is Dual specificity tyrosine-phosphorylation-regulated kinase 1A (Homo sapiens, UniProt Q13627). The assay is described as follows: Inhibition of recombinant Dyrk1A (unknown origin) using KKISGRLSPIMTEQ-NH2 peptide substrate. Put shortly: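 Kinase activity was measured in a cell-free assay with recombinant enzyme and peptide substrate at 100 μM ATP. Values are reported as IC50.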

One may read the IC50 as the concentration that gives 50% inhibition. For the compound `CCN1/C(=C/C(C)=O)Sc2ccc(OC)cc21`, the IC50 amounted to 830 nM.
